In US20120322768A1, “COMPOUNDS, COMPOSITIONS AND METHODS FOR TREATING PROTOZOAN INFECTIONS” (QUEEN MARY & WESTFIELD COLLEGE, priority 2009, published 2012):

target: T1, T. brucei NTR (TbNTR) (Trypanosoma brucei, UniProt Q57XU3); assay: TbNTR enzyme activity by NADH oxidation (absorbance at 340 nm); type: biochemical
T1 sequence (Q57XU3 85-320 limits assumed): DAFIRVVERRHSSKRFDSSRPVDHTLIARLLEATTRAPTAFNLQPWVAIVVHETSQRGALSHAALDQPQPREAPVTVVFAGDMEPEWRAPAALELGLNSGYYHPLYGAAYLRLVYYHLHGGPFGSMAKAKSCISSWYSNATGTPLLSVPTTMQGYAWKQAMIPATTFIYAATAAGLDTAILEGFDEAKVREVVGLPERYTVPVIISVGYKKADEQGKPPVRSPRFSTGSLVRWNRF
Experimental: A DNA fragment encoding for the catalytic domain of T. brucei NTR (TbNTR) was amplified from genomic DNA with the primers ggatcc[…] and gaattc[…]; lower-case italics correspond to restriction sites incorporated into the primers to facilitate cloning. The fragment was digested with BamHI/HindIII then cloned into the corresponding sites of the vector pTrcHis-C (Invitrogen). A 2 litre E. coli BL-21+ pTrcHis-TbNTR culture was grown at 37° C. for 2 hours with aeration. Protein expression was then induced by IPTG, the culture incubated overnight at 16° C. and the cells harvested by centrifugation. […] The elution steps were carried out in the presence of 0.5% Triton X-100 and protease inhibitors (Roche). Fractions were analysed by SDS-PAGE and protein concentrations determined by BCA protein assay system (Pierce).
Enzyme activity was measured by following the change in absorbance at 340 nm due to NADH oxidation (34, 35). A reaction mixture (1 ml) containing 50 mM Tris-Cl pH 7.0, 100 μM NADH and NBPM (Tables 1 and 2) was incubated at room temperature for 5 min. The background rate of NADH oxidation was determined and the reaction initiated by the addition of 20 μg TbNTR. The enzyme activity was calculated using c of 6,220 M^−1 cm^−1. The absorbance spectrum (320-600 nm) for each NBPM was determined before. At the concentration ranges used no significant signal was detected at 340 nm for any of the drugs tested.

SMILES	Activity (Vmax)
NP(=O)(OCc1c(F)cc([N+](=O)[O-])cc1F)N(CCCl)CCCl (stereo not drawn) [LH37, 2,6-Difluoro-4-nitrobenzyl phosphoramide mustard]	1238 ± 48 nmol NADH oxidized min^−1mg^−1
NP(=O)(OCc1ccc([N+](=O)[O-])cc1Cl)N(CCCl)CCCl (stereo not drawn) [LH34, 2-Chloro-4-nitrobenzyl phosphoramide mustard]	706 ± 27 nmol NADH oxidized min^−1mg^−1
NP(=O)(OCc1ccc([N+](=O)[O-])cc1F)N(CCCl)CCCl (stereo not drawn) [LH32, 2-Fluoro-4-nitrobenzyl phosphoramide mustard]	832 ± 9 nmol NADH oxidized min^−1mg^−1
NP(=O)(OCc1ccc([N+](=O)[O-])cc1)N(CCCl)CCCl (stereo not drawn) [LH7]	245.0 ± 34.5 nmol NADH oxidized min^−1mg^−1
NP(=O)(OCc1ccc([N+](=O)[O-])cc1C(F)(F)F)N(CCCl)CCCl (stereo not drawn) [LH33, 2-Trifluoromethyl-4-nitrobenzyl phosphoramide mustard]	654 ± 14 nmol NADH oxidized min^−1mg^−1

test system: bloodstream form T. brucei; assay: not given; type: cell-based

SMILES	IC50 fold lower than nifurtimox [fold]
NP(=O)(OCc1ccc([N+](=O)[O-])cc1Cl)N(CCCl)CCCl (stereo not drawn) [LH34, 2-Chloro-4-nitrobenzyl phosphoramide mustard]	225
